This is an account of results in PubChem BioAssay AID751 (NMMLSC, 2007).

Each structure is given as a SMILES string. Only a part is listed here, and it is no random draw. The source made the active and inactive calls.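 The calls were made as follows: active = inhibition of disassembly above about 33% (limit read from the data); inconclusive = likely self-fluorescent, control bead median signal at least 40; inactive = the rest.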

This assay concerns 26S proteasome (yeast, GFP-tagged, ATP-dependent disassembly). Description: blockers of yeast 26S proteasome breakdown – biochemical, bead-based flow cytometry, GFP-tagged proteasome, primary screen (AID 751).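 Also: plate controls were ATP control with full disassembly for no effect and ATP-gamma-S intact proteasomes for full effect; higher percent means more bead fluorescence retained so stronger block of disassembly.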 The settings on record: anti-FLAG beads, hits give high values, concentration not given here. Background: In flow cytometry, cells or beads pass a laser one at a time.
As to `CP(=O)(Nc1ccccn1)Oc1ccccc1` (centres undefined), the inhibition of disassembly is inactive: -1.19%.

On to `Cc1nc2ccc3ccccc3c2o1.O=[N+]([O-])c1cc([N+](=O)[O-])c(O)c([N+](=O)[O-])c1`, for which the inhibition of disassembly is inactive: -3.34%.

`CCc1nc2c(n1)c1c(non1O)c1c2no[n+]1[O-]`: the inhibition of disassembly was inactive: 0.06%.

On to `O=P(Nc1nccs1)(c1ccccc1)c1ccccc1`, for which the inhibition of disassembly was inactive: 1.31%.

As for `Cc1ccccc1NP(C)(=O)Nc1ccccc1C`, the inhibition of disassembly is inactive: 0.18%.

Take `CP(=O)(Nc1ccc2c(c1)OCCO2)Oc1ccccc1` (centres undefined): the inhibition of disassembly was inactive: -0.15%.

In the case of `CN(C)CCOC(=O)C(O)(c1ccccc1)C1CCCCC1` (centres undefined), the inhibition of disassembly is inactive: 2.49%.

Consider `Cc1ccc(C)c(NP(C)(=O)Oc2ccccc2)c1` (centres undefined), for which the inhibition of disassembly was inactive: -3.46%.

Take `CCOP1(=S)c2c(C)nn(CCC#N)c2N=C(c2ccccc2F)N1C` (centres undefined): the inhibition of disassembly is inactive: -1.05%.

Take `Cc1nn(-c2ccccc2)c2c1P(=O)(N1CCOCC1)N(C)C(c1ccccc1)=N2` (centres undefined): the inhibition of disassembly was inactive: 3.95%.

Turning to `Clc1n[nH]nc1-c1nn[nH][15n]1`, the inhibition of disassembly is inactive: -0.81%.

Turning to `O=C(COc1ccccc1)OC1CN2CCC1CC2` (centres undefined), the inhibition of disassembly is inactive: 0.61%.

Consider `COP1(=S)c2c(C)nn(CCC#N)c2N=C(c2ccc(F)cc2)N1C` (centres undefined), for which the inhibition of disassembly was inactive: -0.23%.

On to `CP(=S)(Nn1cnnc1)Oc1ccccc1` (centres undefined), for which the inhibition of disassembly was inactive: -0.71%.
